Assays:
Assay type in all cases: in vitro ADME
[1] = Stability test in simulated gastric fluid (SGF); settings: 24 hours
[2] = system: Caco-2 cells; test: Caco-2 bi-directional permeability test
[3] = Stability test in simulated intestinal fluid (SIF)

CC(C)C[C@@H](C(=O)Nc1ccn(C[C@@H](O)COC(=O)c2cccnc2)n1)N1CC(Oc2ccccc2Cl)=CC1=O [Compound A, (R)-3-(3-((S)-2-(4-(2-chlorophenoxy)-2-oxo-2,5-dihydro-1H-pyrrol-1-yl)-4-methylpentanamido)-1H-pyrazol-1-yl)-2-hydroxypropyl nicotinate]
Stability in SGF (in words) [1]: stable in SGF for 24 hours | Efflux transporter substrate (in words) [2]: likely to be the substrate for efflux transporters | Permeability from A side to B side (in words) [2]: low | Permeability from B side to A side (in words) [2]: high | Stability in SIF (in words) [3]: extensively degraded in SIF

Source: patent US20260285835A1, “SOLID FORM OF PYRROLIDONE DERIVATIVE AS GLUCOKINASE ACTIVATOR” (priority 2023, published 2026)
